Biological target: Carbonic anhydrase 12 (Homo sapiens, UniProt O43570)

Chains of the proteins cited; added tags and fusions are not shown. Lines headed by an entry give the natural chain unless they say otherwise; changes in a name come on top.
UniProt O43570: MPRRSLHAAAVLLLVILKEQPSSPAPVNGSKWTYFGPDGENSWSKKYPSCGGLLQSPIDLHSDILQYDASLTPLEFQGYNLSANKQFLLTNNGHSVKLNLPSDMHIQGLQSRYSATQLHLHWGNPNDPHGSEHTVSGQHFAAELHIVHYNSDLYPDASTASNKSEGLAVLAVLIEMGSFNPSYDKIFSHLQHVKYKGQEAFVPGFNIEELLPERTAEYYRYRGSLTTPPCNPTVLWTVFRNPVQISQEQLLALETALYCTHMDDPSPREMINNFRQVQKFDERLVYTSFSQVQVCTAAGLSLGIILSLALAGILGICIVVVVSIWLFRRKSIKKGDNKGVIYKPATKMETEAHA

NS(=O)(=O)c1cc(Cl)c(Cl)c(S(N)(=O)=O)c1 [DICHLORPHENAMIDE]
Ki: 0.05 µM

Source: ChEMBL document CHEMBL1141984, “Carbonic anhydrase inhibitors. Inhibition of the transmembrane isozyme XII with sulfonamides-a new target for the design of antitumor and antiglaucoma drugs?” (Bioorg Med Chem Lett, 2005)
